Assay results: patent US8546414B2, “Ion channel modulators and methods of use” (Vertex Pharmaceuticals Incorporated, priority 2004, dated 2013)

Sequences of proteins named here, by UniProt entry; tags and fusion partners are left off.
UniProt Q9NY46, whole entry: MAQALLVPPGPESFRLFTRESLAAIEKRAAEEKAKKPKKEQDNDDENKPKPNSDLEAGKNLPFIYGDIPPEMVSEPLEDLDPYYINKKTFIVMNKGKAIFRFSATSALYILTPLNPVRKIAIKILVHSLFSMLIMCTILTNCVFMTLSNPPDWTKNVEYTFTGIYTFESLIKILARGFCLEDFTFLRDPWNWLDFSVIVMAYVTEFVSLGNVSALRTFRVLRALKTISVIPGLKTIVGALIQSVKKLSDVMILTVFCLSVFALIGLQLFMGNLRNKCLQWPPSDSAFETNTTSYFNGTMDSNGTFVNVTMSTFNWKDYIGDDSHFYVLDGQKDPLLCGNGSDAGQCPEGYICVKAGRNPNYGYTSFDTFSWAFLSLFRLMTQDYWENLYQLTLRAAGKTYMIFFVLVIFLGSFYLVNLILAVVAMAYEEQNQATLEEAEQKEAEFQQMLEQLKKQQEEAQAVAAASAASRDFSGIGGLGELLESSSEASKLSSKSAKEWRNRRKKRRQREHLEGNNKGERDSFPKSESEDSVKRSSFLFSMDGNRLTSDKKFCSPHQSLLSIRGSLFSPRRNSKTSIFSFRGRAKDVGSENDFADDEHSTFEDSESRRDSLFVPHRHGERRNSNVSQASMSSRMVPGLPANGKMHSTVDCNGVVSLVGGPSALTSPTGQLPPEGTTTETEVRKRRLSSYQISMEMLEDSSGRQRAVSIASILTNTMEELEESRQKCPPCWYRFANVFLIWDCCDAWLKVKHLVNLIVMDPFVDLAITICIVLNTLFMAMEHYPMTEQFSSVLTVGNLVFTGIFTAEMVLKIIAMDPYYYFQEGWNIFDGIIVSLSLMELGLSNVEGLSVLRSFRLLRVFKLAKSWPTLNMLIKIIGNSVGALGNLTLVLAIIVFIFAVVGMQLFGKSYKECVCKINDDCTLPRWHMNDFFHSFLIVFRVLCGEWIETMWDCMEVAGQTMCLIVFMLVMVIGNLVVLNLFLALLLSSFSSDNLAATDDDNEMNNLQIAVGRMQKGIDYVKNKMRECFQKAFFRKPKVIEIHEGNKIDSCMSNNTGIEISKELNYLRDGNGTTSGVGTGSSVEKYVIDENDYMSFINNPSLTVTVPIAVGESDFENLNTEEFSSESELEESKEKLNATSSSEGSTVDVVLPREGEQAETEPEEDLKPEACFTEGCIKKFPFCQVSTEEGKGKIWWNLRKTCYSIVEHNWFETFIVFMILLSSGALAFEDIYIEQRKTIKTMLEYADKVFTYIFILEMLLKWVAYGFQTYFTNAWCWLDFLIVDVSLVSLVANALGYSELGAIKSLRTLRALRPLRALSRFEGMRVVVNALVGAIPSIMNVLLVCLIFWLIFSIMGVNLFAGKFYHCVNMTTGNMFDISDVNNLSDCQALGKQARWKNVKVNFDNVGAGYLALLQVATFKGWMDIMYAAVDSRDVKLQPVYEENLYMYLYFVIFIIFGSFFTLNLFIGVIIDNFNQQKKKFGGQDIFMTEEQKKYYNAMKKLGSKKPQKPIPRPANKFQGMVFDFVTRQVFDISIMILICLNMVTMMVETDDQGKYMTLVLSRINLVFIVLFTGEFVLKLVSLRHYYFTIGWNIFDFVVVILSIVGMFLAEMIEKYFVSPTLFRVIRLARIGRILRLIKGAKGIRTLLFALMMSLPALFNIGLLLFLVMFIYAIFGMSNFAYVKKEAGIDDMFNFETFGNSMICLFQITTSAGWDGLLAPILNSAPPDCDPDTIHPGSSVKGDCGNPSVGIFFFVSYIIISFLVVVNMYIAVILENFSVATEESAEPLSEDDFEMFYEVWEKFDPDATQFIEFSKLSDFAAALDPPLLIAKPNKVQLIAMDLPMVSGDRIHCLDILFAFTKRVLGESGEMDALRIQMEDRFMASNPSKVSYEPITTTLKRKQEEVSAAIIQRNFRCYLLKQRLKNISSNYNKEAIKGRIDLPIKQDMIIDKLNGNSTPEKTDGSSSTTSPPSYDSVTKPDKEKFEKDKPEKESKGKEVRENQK
UniProt Q00975, whole entry: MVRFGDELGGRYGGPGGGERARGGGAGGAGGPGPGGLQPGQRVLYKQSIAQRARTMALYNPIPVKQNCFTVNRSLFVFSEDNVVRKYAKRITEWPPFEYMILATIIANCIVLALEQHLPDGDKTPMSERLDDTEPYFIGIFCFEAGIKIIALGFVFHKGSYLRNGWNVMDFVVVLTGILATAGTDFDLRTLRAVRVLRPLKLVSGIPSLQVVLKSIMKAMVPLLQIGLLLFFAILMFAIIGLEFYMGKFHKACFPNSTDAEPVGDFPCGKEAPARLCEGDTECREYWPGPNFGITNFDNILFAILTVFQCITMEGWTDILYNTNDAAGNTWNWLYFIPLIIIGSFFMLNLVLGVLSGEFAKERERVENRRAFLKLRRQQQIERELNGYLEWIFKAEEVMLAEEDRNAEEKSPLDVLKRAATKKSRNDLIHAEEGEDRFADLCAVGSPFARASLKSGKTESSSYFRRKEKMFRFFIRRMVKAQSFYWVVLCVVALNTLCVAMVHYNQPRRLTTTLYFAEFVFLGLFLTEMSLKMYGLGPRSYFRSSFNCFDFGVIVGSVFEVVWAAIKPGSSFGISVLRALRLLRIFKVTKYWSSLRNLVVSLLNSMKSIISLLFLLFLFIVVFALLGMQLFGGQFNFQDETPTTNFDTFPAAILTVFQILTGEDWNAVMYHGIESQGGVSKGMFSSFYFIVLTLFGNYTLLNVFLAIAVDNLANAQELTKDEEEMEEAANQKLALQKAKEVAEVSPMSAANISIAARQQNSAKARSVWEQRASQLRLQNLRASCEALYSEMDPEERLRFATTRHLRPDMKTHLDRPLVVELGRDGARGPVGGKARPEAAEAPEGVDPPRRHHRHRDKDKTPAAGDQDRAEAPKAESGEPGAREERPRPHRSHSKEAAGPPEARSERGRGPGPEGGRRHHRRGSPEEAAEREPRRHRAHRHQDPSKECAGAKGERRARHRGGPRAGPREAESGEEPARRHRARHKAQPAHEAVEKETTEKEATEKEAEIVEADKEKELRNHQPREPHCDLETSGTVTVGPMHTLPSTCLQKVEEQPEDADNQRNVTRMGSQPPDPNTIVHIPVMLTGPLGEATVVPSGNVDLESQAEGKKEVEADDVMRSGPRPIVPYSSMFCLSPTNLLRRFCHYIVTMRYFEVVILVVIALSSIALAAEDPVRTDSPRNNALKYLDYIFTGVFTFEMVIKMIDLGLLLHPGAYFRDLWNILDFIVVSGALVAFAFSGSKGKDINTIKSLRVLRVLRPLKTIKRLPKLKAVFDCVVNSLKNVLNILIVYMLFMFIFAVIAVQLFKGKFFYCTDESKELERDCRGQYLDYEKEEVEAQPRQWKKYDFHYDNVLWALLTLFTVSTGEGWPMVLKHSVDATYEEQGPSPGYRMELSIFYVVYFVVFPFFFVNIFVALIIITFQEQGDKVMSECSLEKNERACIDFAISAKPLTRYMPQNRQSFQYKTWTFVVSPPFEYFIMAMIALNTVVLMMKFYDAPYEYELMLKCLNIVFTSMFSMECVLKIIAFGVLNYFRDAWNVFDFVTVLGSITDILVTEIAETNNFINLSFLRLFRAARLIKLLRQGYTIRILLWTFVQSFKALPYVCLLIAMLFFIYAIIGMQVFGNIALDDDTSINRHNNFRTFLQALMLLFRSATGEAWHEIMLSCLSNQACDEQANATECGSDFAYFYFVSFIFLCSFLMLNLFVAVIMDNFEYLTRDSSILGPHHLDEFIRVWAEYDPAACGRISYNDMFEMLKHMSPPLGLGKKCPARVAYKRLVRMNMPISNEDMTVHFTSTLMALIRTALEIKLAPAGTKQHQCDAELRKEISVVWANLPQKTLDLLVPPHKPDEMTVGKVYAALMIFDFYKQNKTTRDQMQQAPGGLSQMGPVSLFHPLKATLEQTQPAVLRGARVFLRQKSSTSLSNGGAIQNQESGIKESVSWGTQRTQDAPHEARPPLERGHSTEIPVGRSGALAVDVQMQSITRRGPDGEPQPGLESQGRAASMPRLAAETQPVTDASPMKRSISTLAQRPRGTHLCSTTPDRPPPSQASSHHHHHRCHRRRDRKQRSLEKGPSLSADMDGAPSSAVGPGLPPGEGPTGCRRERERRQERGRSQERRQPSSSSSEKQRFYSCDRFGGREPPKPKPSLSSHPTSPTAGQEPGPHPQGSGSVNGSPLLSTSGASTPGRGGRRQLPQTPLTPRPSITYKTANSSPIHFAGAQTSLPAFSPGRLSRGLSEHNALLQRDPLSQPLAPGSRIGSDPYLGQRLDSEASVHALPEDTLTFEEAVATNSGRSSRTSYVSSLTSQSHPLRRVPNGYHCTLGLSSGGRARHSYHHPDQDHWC
UniProt Q9Y5Y9, whole entry: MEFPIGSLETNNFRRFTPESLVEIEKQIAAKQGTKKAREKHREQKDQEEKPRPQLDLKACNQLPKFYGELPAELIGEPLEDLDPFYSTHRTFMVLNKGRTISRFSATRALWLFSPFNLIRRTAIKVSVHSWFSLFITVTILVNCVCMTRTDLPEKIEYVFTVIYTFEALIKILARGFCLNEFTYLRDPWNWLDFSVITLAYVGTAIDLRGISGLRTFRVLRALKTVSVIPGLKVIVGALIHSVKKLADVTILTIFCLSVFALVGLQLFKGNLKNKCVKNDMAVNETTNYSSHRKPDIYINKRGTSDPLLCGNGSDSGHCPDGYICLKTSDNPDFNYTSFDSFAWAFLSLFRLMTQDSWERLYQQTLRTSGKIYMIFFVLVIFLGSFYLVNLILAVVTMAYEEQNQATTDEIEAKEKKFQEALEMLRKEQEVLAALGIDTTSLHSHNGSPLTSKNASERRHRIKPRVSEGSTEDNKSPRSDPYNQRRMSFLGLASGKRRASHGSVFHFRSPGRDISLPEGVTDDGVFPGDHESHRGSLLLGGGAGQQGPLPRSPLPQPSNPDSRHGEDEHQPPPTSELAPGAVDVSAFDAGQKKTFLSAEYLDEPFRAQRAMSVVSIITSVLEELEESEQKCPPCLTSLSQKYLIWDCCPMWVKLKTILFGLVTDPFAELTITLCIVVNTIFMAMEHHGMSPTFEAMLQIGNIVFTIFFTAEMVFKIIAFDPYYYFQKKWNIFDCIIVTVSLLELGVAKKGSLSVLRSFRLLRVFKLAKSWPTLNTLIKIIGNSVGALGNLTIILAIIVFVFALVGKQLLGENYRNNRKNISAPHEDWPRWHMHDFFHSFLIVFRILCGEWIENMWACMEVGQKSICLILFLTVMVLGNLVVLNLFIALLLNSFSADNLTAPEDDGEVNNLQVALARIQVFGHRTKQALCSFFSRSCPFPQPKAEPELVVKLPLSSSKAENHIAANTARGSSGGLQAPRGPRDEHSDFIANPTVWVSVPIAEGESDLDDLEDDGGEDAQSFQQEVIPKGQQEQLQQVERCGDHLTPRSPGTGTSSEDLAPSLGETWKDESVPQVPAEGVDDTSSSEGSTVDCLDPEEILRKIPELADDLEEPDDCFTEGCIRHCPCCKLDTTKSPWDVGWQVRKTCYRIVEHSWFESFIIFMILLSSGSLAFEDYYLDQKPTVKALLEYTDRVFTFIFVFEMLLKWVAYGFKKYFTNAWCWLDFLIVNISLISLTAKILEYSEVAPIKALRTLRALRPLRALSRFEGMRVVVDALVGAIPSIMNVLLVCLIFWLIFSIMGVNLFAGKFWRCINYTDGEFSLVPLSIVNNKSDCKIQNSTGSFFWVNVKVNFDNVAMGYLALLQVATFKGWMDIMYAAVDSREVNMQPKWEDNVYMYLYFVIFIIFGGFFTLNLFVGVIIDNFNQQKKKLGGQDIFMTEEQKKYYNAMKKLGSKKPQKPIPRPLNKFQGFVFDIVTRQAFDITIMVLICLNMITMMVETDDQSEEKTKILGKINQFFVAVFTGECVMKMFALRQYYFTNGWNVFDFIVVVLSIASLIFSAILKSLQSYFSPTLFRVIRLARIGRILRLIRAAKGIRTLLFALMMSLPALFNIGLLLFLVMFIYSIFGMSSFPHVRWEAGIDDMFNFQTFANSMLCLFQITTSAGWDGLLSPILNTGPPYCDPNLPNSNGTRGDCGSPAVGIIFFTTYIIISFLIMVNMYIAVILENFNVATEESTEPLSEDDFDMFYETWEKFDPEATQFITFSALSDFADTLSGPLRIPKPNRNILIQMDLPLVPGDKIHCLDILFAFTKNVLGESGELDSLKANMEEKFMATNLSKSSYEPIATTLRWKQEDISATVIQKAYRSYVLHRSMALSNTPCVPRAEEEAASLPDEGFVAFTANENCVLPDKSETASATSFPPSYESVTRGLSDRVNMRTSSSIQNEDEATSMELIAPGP

What was measured:
NaV1.3 = NaV1.3 (Homo sapiens, UniProt Q9NY46); assay: VIPR optical membrane potential assay with electrical stimulation, NaV1.3; settings: read-out: NaV 1.3 activity; Table 9, NaV 1.3 receptors
CaV2.2 = CaV2.2 (Homo sapiens, UniProt Q00975); assay: VIPR optical membrane potential assay with electrical stimulation, CaV2.2; settings: read-out: CaV 2.2 activity; Table 9, CaV 2.2 receptors
NaV1.8 = NaV1.8 (Homo sapiens, UniProt Q9Y5Y9); assay: VIPR optical membrane potential assay, NaV1.8 (other subtypes in an analogous mode); settings: read-out: NaV 1.8 activity; Table 9, NaV 1.8 receptors

Measured: IC50

Cc1nc(N2CCCCC2)nc(-c2ccccc2F)c1C(=O)N(c1ccccc1)C(C)C
> 10 µM: NaV1.3 | CaV2.2 | NaV1.8
